Data as given in paper PMC8308639, “Synthesis and Human Carbonic Anhydrase I, II, IX, and XII Inhibition Studies of Sulphonamides Incorporating Mono-, Bi- and Tricyclic Imide Moieties” (Pharmaceuticals, 2021).

By UniProt entry, the sequences of proteins in these tests, tags left out. Residues count along the entry.
UniProt O43570, 25-354: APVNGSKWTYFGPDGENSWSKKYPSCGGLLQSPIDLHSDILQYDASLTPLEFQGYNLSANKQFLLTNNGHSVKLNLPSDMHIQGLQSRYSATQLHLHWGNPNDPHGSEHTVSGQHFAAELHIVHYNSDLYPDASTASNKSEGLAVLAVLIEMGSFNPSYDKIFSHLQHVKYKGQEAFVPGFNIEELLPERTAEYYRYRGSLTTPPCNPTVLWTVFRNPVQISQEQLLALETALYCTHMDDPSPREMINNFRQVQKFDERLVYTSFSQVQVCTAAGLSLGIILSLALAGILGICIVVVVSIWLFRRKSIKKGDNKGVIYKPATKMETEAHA

Assays:
hCA IX = hCA IX (Homo sapiens, UniProt Q16790); assay: CA-catalysed CO2 hydration stopped-flow inhibition assay, hCA IX; conditions: for Ki: Ki (nM) hCA IX, stopped-flow CO2 hydration, mean ± standard error, three assays
hCA XII = hCA XII (Homo sapiens, UniProt O43570); assay: CA-catalysed CO2 hydration stopped-flow inhibition assay, hCA XII

SMILES | Ki (hCA IX) | Selectivity Ratio A = hCA II/IX (hCA IX) | Selectivity Ratio B = hCA II/XII (hCA XII)
NS(=O)(=O)c1ccc(N2C(=O)c3c(Cl)c(Cl)c(Cl)c(Cl)c3C2=O)cc1 [Compound 6, 4-(4,5,6,7-tetrachloro-1,3-dioxoisoindolin-2-yl) benzenesulphonamide] | 9.7 ± 0.8 nM | – | –
NS(=O)(=O)c1ccc(CCN2C(=O)c3c(Cl)c(Cl)c(Cl)c(Cl)c3C2=O)cc1 [Compound 8, 4-(2-(4,5,6,7-tetrachloro-1,3-dioxoisoindolin-2-yl)ethyl)benzenesulphonamide] | 53 ± 3 nM | – | –
NS(=O)(=O)c1ccc(N2C(=O)c3c(Cl)c(Cl)c(Cl)c(Cl)c3C2=O)c(F)c1 [Compound 11, 3-fluoro-4-(4,5,6,7-tetrachloro-1,3-dioxoisoindolin-2-yl) benzenesulphonamide] | – | 0.039 | 0.243
NS(=O)(=O)c1ccc(N2C(=O)c3c(Cl)c(Cl)c(Cl)c(Cl)c3C2=O)c(Cl)c1 [Compound 12, 3-chloro-4-(4,5,6,7-tetrachloro-1,3-dioxoisoindolin-2-yl)benzenesulphonamide] | – | 0.1 | 0.223
NS(=O)(=O)c1ccc(N2C(=O)c3c(Cl)c(Cl)c(Cl)c(Cl)c3C2=O)c(Br)c1 [Compound 13, 3-bromo-4-(4,5,6,7-tetrachloro-1,3-dioxoisoindolin-2-yl) benzenesulphonamide] | – | 0.06 | 0.024
